Source: article PMC10773907 (Frontiers in Pharmacology, 2023)

Chains of the proteins cited; added tags and fusions are not shown. Lines headed by an entry give the natural chain unless they say otherwise; changes in a name come on top.
UniProt Q9Y3D6: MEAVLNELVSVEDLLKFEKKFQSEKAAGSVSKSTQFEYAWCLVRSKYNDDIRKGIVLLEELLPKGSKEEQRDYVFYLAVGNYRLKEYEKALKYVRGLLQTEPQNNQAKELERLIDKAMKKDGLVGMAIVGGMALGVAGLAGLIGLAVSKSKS

Molecular target: T1, mitochondrial fission 1 protein (Fis1), recombinant, as used in the field-effect biosensing assays (human, UniProt Q9Y3D6 1-152)
T1 construct: Fis1; also called hFis1; source: E. coli Rosetta, purified (Ni-NTA)
Assay: field-effect biosensing (FEB, AGILE Dev Kit); protein (500 nM) cross-linked by EDC/sulfo-NHS to the graphene biosensor chip, peptide as analyte in a series of concentrations, PBS pH 7.4, room temperature, KD from a Hill fit, n = 3
Settings: both partners purified

Kd: 3.88 mM
B1: CVP-235 (peptide)
peptide: NRDMKTGL
modifications: N-terminal acetyl
notes: stretch of Mid51 (peptide derived from Mid51); overlaps CVP-233 by four residues; Made on Rink amide MBHA resin, so the C-terminus is probably an amide; source: synthetic peptide
